Earlier results, collected in patent publication US4645774A, “Aminoethoxybenzylalcohol derivatives, process for their preparation and pharmaceutical compositions containing them” (Richter Gedeon Vegyeszeti Gyar Rt, priority 1982, dated 1987).

System: CNS
Details: when administered in the effective dose; cited from earlier work

Question: Which side-effect in therapy does the source give for `CCC1(c2ccccc2)C(=O)NC(=O)NC1=O` [phenobarbital, reference compound] here?
Answer: CNS (sedative, despiration-depressing) side-effect
